# In ChEMBL document CHEMBL1629424, “Does conjugation of antioxidants improve their antioxidative/anti-inflammatory potential?” (Bioorg Med Chem, 2010):
# Assay: Antioxidant activity of the compound assessed as reducing activity of DPPH at 0.1 mM after 20 mins
# Format: functional
# Set-up: scale not given: the % may be the effect or the level left
structure (smiles),measurement,value
CC(Cc1ccc(O)c(O)c1)C(C)Cc1ccc(O)c(O)c1 (stereo unspecified),Activity,81%
